From US20250000814A1 (DONG-A ST CO., LTD., priority 2021, published 2025) come the findings set out here.

Read-outs that look alike come from different tables or passages of the source. Bounds are passed on as bounds.

This data set can be described thus: Solubility evaluation for the solubilizer propylene glycol monocaprylate. How it is done: The resulting mixture was treated in a shaking constant temperature bath at 25° C. for 24 hours.
<Liquid Chromatography Conditions>

Regarding Memantine Hemi-L-Tartrate, the “Propylene glycol monocaprylate solubility” value is under 5000 µg/mL.
Memantine Hemi-Oxalate: where the note is “25° C., 24 hours, 50 mg as memantine free base added to 1 mL”, the “Propylene glycol monocaprylate solubility” value is under 5000 µg/mL.
